# Yeast mating assay B: variants of the scFv Ab-14

Data: MIT Lincoln Laboratory AlphaSeq set, Li et al. 2023, doi:10.1038/s41467-023-39022-2, as distributed in FLAb.

The target is the same throughout: PDVDLGDISGINAS, from the HR2 region of SARS-CoV-2 spike.

The variants keep the heavy chain, the linker and the frameworks of Ab-14 (scFv order VH, a 15-residue (Gly4Ser)3 linker, VL).
VH: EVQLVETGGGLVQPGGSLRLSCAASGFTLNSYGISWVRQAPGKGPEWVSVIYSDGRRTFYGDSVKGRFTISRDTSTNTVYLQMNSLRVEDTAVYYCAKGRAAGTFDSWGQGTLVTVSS
VL: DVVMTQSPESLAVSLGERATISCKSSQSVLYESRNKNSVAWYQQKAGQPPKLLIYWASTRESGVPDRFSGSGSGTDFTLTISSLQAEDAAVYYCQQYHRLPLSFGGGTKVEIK

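Designed CDR sequences, proposed from the first random library and measured here. Their group label is 14L_GP_HC (GP: Gaussian process model; HC: hill climbing; a sequence that several methods proposed may carry one label only). The scFvs were displayed on barcoded MATa yeast, the peptide on MATalpha yeast. The frequency of each diploid, read from paired DNA barcodes, reflects how well the two displayed proteins bind. Read counts were normalised to the haploid input and turned into Kd by a linear fit to BCL2-family pairs of known affinity, for each replicate. The assay was run in six technical replicates.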

Positions count from residue 1 of the parent VL; K24D puts D in place of K.
The read-out is the apparent dissociation constant on a log10 scale (nM): the lower, the stronger.
A pair that was not seen in that replicate is written "nd"; this usually means weak binding, but a binder can also be missed.
A sequence measured in both rounds can read differently, since the two assays cover different ranges.
Of ten entries with the parent sequence, four were seen in most replicates (averages 0.34 to 2.37), three in one and three in none, so single entries are noisy.
Three control strains display no target. For all light chain designs, 4% of the pairings with them gave a signal, with a median of 2.64 and one signal in twenty below 1.59, so weak values seen in few replicates may be background. For each scFv, signals with the empty controls are counted beside the result, with their mean in brackets.
In the paper, a design with two or fewer of six values counts as a poor binder.

changes,"log10 Kd, replicates",signal with controls
K24D+V29D+W56G,-0.52 -0.31 -0.44 -0.58 -0.26 -0.31,3/18 (2.51)
S25F+V29F+N35W+W56G+T59Q,0.16 0.05 0.11 -0.24 -0.10 0.08,1/18 (4.48)
S25E+L30P+Y31F+S33W+W56D,0.01 -0.06 -0.01 -0.23 0.05 0.25,0/18
V29E+K36F+N37W+W56G,0.95 0.85 0.62 0.82 0.70 0.99,0/18
S25V+N35T+W56N+Y97G,nd nd nd nd 1.83 nd,1/18 (2.43)
S25F+S28W+L30E+N35T+W56N,0.58 0.28 0.32 0.35 0.24 0.32,2/18 (3.23)
S25W+L30D+Y31F+W56D,0.06 -0.43 -0.12 -0.42 -0.05 -0.10,1/18 (2.95)
Q27V+V29Y+Y31E+W56E,0.20 0.05 -0.04 0.05 0.09 0.14,4/18 (3.06)
S25Q+Q27W+Y31F+W56D,-0.24 -0.53 -0.50 -0.43 -0.38 -0.27,2/18 (3.65)
S25F+Q27P+N35A+W56N,-0.03 -0.01 -0.06 -0.07 -0.17 -0.14,0/18
V29F+K36S+W56G,0.14 -0.10 -0.23 -0.10 -0.23 0.04,1/18 (2.46)
K24I+S25A+S26R+V29W+W56G+S103I,0.55 0.71 0.54 0.56 0.21 0.75,1/18 (3.54)
S25Q+Y31Q+S33W+W56D,0.74 0.33 0.29 -0.33 0.05 0.35,1/18 (2.72)
S25F+Y31G+S33Q+W56D+A57I,0.21 0.09 -0.13 0.22 -0.20 0.12,0/18
S26Q+S28G+W56G+T59Q+E61W,0.99 1.13 0.00 0.78 0.87 0.55,0/18
S25Q+S28Q+Y31F+W56D,-0.31 -0.28 -0.39 -0.45 -0.33 -0.35,0/18
S26Q+V29W+W56G+S62N,0.20 0.35 0.09 0.00 0.16 0.19,2/18 (2.49)
S25F+N35Q+W56N+Q96W,1.84 1.02 0.84 0.98 1.37 1.19,1/18 (2.28)
S25V+Q27I+V29Y+Y31L+W56E+S62L,0.26 0.11 0.03 0.07 -0.20 0.47,1/18 (2.53)
S25I+S28V+V29Y+W56G,0.13 0.09 0.01 -0.15 -0.05 0.11,1/18 (2.89)
S25V+N35M+W56G+E61C+S103E,0.42 0.52 0.29 0.13 0.56 0.68,3/18 (2.26)
S25L+S26C+W56H+S62D+S103M,0.41 0.11 0.21 0.31 0.02 0.26,0/18
K24H+Q27P+V29E+S38N+W56N,-0.34 -0.70 -0.81 -0.89 -0.63 -0.42,0/18
Q27F+V29Y+W56E,0.52 0.56 0.26 0.57 0.22 0.49,1/18 (2.28)
S25L+S26Y+V29T+K36Q+W56N,0.45 0.43 0.18 0.29 0.24 0.49,1/18 (3.08)
S25V+L30V+S33G+W56D+S62D,0.17 0.23 0.13 0.09 0.42 0.24,0/18
S25Q+Q27W+Y31F+W56D+E61S,0.37 0.46 0.40 0.41 0.40 0.35,0/18
S25V+V29W+Y31S+W56E+E61Q,-0.14 -0.15 -0.34 -0.35 -0.37 -0.19,0/18
S25V+S26Q+N35M+W56D+E61C,0.53 0.44 0.17 0.33 0.24 0.41,3/18 (3.89)
S25L+V29W+Y31M+W56E+E61Q,0.07 -0.16 -0.08 -0.33 -0.28 -0.13,2/18 (2.82)
S25F+S26G+Q27C+S28G+W56G,0.27 -0.04 -0.10 0.03 -0.05 0.12,1/18 (1.61)
K24H+Q27P+V29Y+W56N,nd nd nd nd nd nd,1/18 (1.24)
V29W+W56N+T59L,-0.35 -0.27 -0.29 -0.30 -0.49 -0.28,0/18
S25I+N35T+W56N+S58V+S62T,-0.05 -0.15 -0.21 -0.20 -0.04 -0.05,1/18 (3.16)
S25F+N35T+W56N+Q96T,0.31 0.50 0.16 0.01 0.42 0.42,0/18
S25L+S26M+S28G+W56G,-0.64 -0.69 -0.94 -0.87 -0.78 -0.60,1/18 (0.68)
K24H+Q27P+L30R+W56N,1.35 1.55 1.43 1.14 3.89 2.08,0/18
S25L+V29F+N35W+W56E+T59Q,0.26 0.12 0.46 0.21 -0.04 0.38,1/18 (4.04)
S25Q+S38A+W56D,-0.10 -0.39 -0.29 -0.38 -0.19 -0.15,0/18
S26F+S28G+W56G+S103I,0.82 0.50 0.84 0.74 0.43 0.66,0/18
S25Q+S26L+W56H+S62D+R99Q,0.41 0.11 0.09 0.00 0.08 0.27,1/18 (1.74)
S26P+V29Q+W56H+S62D+Q96S,nd nd nd nd nd nd,0/18
Q27I+V29Y+K36E+W56E+S62V,0.21 0.33 0.11 0.01 0.17 0.35,1/18 (2.43)
S25V+S26L+L30M+S33G+W56H+S62D,0.65 0.56 1.37 0.93 0.52 0.40,0/18
S25L+V29G+W56D+Q95Y+L102S,nd nd nd nd 2.58 nd,1/18 (1.56)
S25L+S26L+N35D+W56N+S62D,0.35 0.00 -0.10 -0.07 0.09 0.39,0/18
S25V+V29F+S38A+W56G+P101E,1.16 1.07 0.87 1.02 0.79 1.63,3/18 (2.81)
S25Q+S28E+Y31P+W56D,nd 0.11 0.47 0.81 0.82 0.32,0/18

Repeated from above, the 4 best binders with a signal in all replicates:

{"changes": "S25L+S26M+S28G+W56G", "log10 Kd, replicates": "-0.64 -0.69 -0.94 -0.87 -0.78 -0.60", "signal with controls": "1/18 (0.68)"}
{"changes": "K24H+Q27P+V29E+S38N+W56N", "log10 Kd, replicates": "-0.34 -0.70 -0.81 -0.89 -0.63 -0.42", "signal with controls": "0/18"}
{"changes": "K24D+V29D+W56G", "log10 Kd, replicates": "-0.52 -0.31 -0.44 -0.58 -0.26 -0.31", "signal with controls": "3/18 (2.51)"}
{"changes": "S25Q+Q27W+Y31F+W56D", "log10 Kd, replicates": "-0.24 -0.53 -0.50 -0.43 -0.38 -0.27", "signal with controls": "2/18 (3.65)"}